Binding of CDR-mutated scFvs to a peptide of the spike HR2 region

Binding partner: SARS-CoV-2 spike HR2 peptide, sequence PDVDLGDISGINAS.

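The variants were designed computationally from a first round of random CDR variants and then made and measured. Several design methods are mixed in this list. AlphaSeq pools MATa yeast showing the antibodies with MATalpha yeast showing the peptide. After mating in shaken culture at 30 °C for 16 h, diploids were selected and their barcode pairs sequenced. A regression on co-assayed BCL2-family reference pairs converts the normalised counts of each replicate to an apparent Kd. Each pool was mated in six replicate cultures.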

The variants keep the heavy chain, the linker and the frameworks of Ab-14 (scFv order VH, the linker GGGGSGGGGSGGGGS, VL).
VH: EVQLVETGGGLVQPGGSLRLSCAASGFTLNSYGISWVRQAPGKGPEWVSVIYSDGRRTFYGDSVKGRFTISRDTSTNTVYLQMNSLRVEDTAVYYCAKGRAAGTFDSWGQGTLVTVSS
VL: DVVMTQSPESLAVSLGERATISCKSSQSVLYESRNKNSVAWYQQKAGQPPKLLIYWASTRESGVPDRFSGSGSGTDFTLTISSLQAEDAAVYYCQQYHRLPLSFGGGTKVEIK

The parent's light chain CDRs are KSSQSVLYESRNKNSVA, WASTRES, QQYHRLPLS; each variant's own CDRs replace them letter for letter. This list holds designs with at most six substitutions. Values are log10 of the apparent Kd in nM; lower means stronger binding. The mean shown is taken over the replicates in which the pair was detected. "ND" marks a missing value. The strain was present, yet no cells mated with the target were sequenced in that replicate, which points to weak or no binding. The authors' rule: three or more of the six replicates give a measured affinity, fewer mean a poor binder.

CDR-L1	CDR-L2	CDR-L3	log10 Kd (nM) by replicate	log10 Kd (nM), mean	empty controls
HSEQSVLEESRNKNSVA	WASTRES	QQYHRLPLI	ND 2.08 ND ND 1.69 ND	1.88	0/18
KISQSELYESRNKNSVA	EASTRMS	QQYHRLPLS	-0.03 -0.04 -0.16 -0.27 -0.12 -0.02	-0.11	2/18 (2.71)
KSSISYLYEWRNKNSVA	EASTREQ	QQYHRLPLS	0.96 0.15 0.10 0.03 0.32 0.09	0.28	0/18
HLSQSVLYESRNKNSVA	DASTRES	QQYHRLPLS	-0.28 -0.36 -0.41 -0.64 -0.41 -0.33	-0.41	0/18
KMSQSYLYESRNKNSVA	EASTRES	QQYHRLPLS	0.21 0.34 0.14 -0.06 0.21 0.44	0.21	0/18
KLQQSWLYESRNKNSVA	GASTRES	QQYHRLPLS	-0.07 0.09 0.19 -0.23 -0.19 0.27	0.01	0/18
KSSISKLYESRNKNSVA	EASTRES	QQYHRLPLS	0.29 0.30 0.19 0.04 0.01 0.25	0.18	0/18
KSSQSELYESRNKNSVA	NASQRES	QQYHRLPLS	0.30 0.20 -0.16 0.04 0.07 0.35	0.13	1/18 (2.51)
KLQQSELYESRNKNSVA	NASQRED	QQYHRLPLS	-0.21 -0.17 -0.40 -0.33 -0.19 -0.13	-0.24	3/18 (2.48)
KLSQSFLYESRNKNSVA	GASTRES	YQYHRLTLS	ND ND ND ND ND ND	ND	0/18
KLSQSQLYESRNKNNVA	SASTRES	QQYHRLPLS	-0.24 -0.43 -0.57 -0.63 -0.55 -0.39	-0.47	3/18 (3.40)
KHSDSVPNESRNKNSVA	WASTRES	QQYHRLPLS	ND 3.44 2.08 1.37 1.54 1.54	1.99	0/18
KSSWSVLYESNNVNSVA	HASTRED	QQYHRLPLS	0.49 0.63 0.77 0.54 1.25 0.72	0.73	2/18 (1.93)
KLRQSTLYESRNKNSVA	GASTRES	QQYHRLPLS	-0.39 -0.38 -0.24 -0.52 -0.24 -0.03	-0.30	1/18 (2.06)
KFSQFVLYESRNKNSVA	WASTRES	QQYHRWPLS	ND ND ND ND ND ND	ND	1/18 (2.47)
KLPQSVLYESRNKNSVA	EASTRCS	QQYHRLPLS	-0.20 -0.42 -0.46 -0.56 -0.51 -0.36	-0.42	0/18
KLSQSMLYESRNKNSVA	DASTRLS	QQYHRLPLS	0.09 -0.54 -0.14 -0.80 -0.48 -0.44	-0.38	0/18
KTSQSVLYESRNDNSVA	WGSTRES	QQYHRLPLS	1.50 0.79 0.85 0.64 0.98 1.05	0.97	1/18 (2.43)
KVSQSVLYESRNKNSVA	DASTRLS	QQYHRLPLS	0.74 0.75 0.45 0.62 0.80 0.89	0.71	1/18 (4.09)
KLEQSGLYESRNKNSVA	NASTRES	QQYHRLPLS	-0.02 -0.10 -0.27 -0.38 -0.13 0.08	-0.14	0/18
KSLQSVLYEERNKCSVA	HASTRED	QQYHRLPLS	1.39 0.56 1.11 0.62 0.71 1.08	0.91	0/18
KLSQSVLHESRNKNSVA	WASTRES	QQYHRLILS	ND ND ND ND ND ND	ND	0/18
KSSQEVLYESRNKNSVA	EASTRES	QWYTRLPLS	0.48 0.10 0.44 0.50 0.71 0.64	0.48	0/18
KSSQSVLYESRNHNSVA	WASLRES	QQYHRLPLS	ND ND ND 2.09 ND ND	2.09	1/18 (2.03)
KSSQSVDYESRNKNSVA	EASTRES	QQYHRLPLS	0.02 -0.10 -0.06 -0.05 0.11 0.08	0.00	2/18 (2.38)
KSSQSVLQESRNDNSVA	WASTRES	QQYHRMPLS	ND 2.83 1.73 3.04 2.02 2.56	2.44	1/18 (3.36)
KNSQSFLMESRNKNSVA	SASTRES	QQYHRLPLS	ND 2.22 ND ND ND ND	2.22	0/18
KLSNSDLYQSRNKNSVA	NASTRYS	QQYHRLPLS	0.30 -0.31 0.58 -0.45 -0.40 -0.07	-0.06	0/18
KSSQSVLYESRNANSVA	WASTREC	QQYHRLPLS	ND ND ND ND ND ND	ND	0/18
KRSQSVLYESTNKNSVA	WASTRES	QQYHRLPLS	ND 0.82 1.60 ND ND 2.26	1.56	0/18
KSSQDVGYESRNKNSVA	WASTRES	QQYHRLMLS	ND 0.97 ND 0.74 1.11 ND	0.94	1/18 (0.18)
KLSQSWLYESRNKNSVA	DASTRLS	QQYHRLPLS	-0.01 0.00 -0.04 -0.45 -0.05 -0.05	-0.10	1/18 (2.18)

Again, the first 4 entries without any signal:

{"CDR-L1": "KLSQSFLYESRNKNSVA", "CDR-L2": "GASTRES", "CDR-L3": "YQYHRLTLS", "log10 Kd (nM) by replicate": "ND ND ND ND ND ND", "log10 Kd (nM), mean": "ND", "empty controls": "0/18"}
{"CDR-L1": "KFSQFVLYESRNKNSVA", "CDR-L2": "WASTRES", "CDR-L3": "QQYHRWPLS", "log10 Kd (nM) by replicate": "ND ND ND ND ND ND", "log10 Kd (nM), mean": "ND", "empty controls": "1/18 (2.47)"}
{"CDR-L1": "KLSQSVLHESRNKNSVA", "CDR-L2": "WASTRES", "CDR-L3": "QQYHRLILS", "log10 Kd (nM) by replicate": "ND ND ND ND ND ND", "log10 Kd (nM), mean": "ND", "empty controls": "0/18"}
{"CDR-L1": "KSSQSVLYESRNANSVA", "CDR-L2": "WASTREC", "CDR-L3": "QQYHRLPLS", "log10 Kd (nM) by replicate": "ND ND ND ND ND ND", "log10 Kd (nM), mean": "ND", "empty controls": "0/18"}

Of ten entries with the parent sequence, four were seen in most replicates (averages 0.34 to 2.37), three in one and three in none, so single entries are noisy. Nonspecific signal, from three strains lacking the peptide, appeared in 4% of pairings of all light chain designs, centred on 2.64 (5% of these signals below 1.59); values are not corrected for it. For each scFv, signals with the empty controls are counted beside the result, with their mean in brackets. Values of this round are not directly comparable with the first-round values of the same sequences.

Source: Li et al. 2023 (doi:10.1038/s41467-023-39022-2), MIT Lincoln Laboratory and A-Alpha Bio; data file from the FLAb repository.